Assay [1] has as its target T1, FGFR1 kinase domain (Homo sapiens, UniProt P11362, C488A/C584S). The experiment in a line: Isothermal titration calorimetry (ITC) of inhibitors binding to FGFR1. To be noted: for -TΔS (ITC) / N (ITC stoichiometry) / ΔG (ITC) / ΔH (ITC): 298.15 K. In general terms: In ITC the heat of successive injections is recorded.
The target in assay [2] is T1, FGFR1 kinase domain. The experiment in a line: SPR kinetic analysis of inhibitors binding to FGFR1 kinase domain. Conditions: read-out: KD (koff/kon), 298 K, pH 7.4.

Protein sequences, listed by entry. Tags and fused reporters are not part of them. Residues count along the entry.
UniProt P11362, 458-765 C488A/C584S limits assumed: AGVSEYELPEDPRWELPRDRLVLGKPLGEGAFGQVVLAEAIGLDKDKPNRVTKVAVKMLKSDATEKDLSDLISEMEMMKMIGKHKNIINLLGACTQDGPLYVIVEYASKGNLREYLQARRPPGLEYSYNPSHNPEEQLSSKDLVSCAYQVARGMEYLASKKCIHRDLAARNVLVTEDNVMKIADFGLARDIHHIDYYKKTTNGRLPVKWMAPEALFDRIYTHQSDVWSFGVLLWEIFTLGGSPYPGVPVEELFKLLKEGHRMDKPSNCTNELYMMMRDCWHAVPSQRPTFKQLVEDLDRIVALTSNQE

With `Cc1cc(CNc2nccc(Nc3cc(CCc4ccccc4)[nH]n3)n2)on1`, at FGFR1 kinase domain [1], the “-TΔS (ITC)” value is -4.0 ± 0.4 kcal/mol, the “N (ITC stoichiometry)” value stood at 1.1±0.01, the “ΔG (ITC)” value was -9.8 ± 0.1 kcal/mol and the “ΔH (ITC)” value was -5.7 ± 0.4 kcal/mol.
For the compound `CCN1CCC(c2ccc(C(=O)Nc3cc(CCc4cc(OC)cc(OC)c4)[nH]n3)cc2)CC1`, the Kd at FGFR1 kinase domain [2] was 0.7 nM. Moreover, at FGFR1 kinase domain [1], the “-TΔS (ITC)” value worked out at 3.0 ± 0.4 kcal/mol, the “N (ITC stoichiometry)” value stood at 0.8±0.001, the “ΔG (ITC)” value is -12.0 ± 0.1 kcal/mol and the “ΔH (ITC)” value is -15.0 ± 0.6 kcal/mol. For the same compound, the Kd on FGFR1 kinase domain [1] (read-out: KD (ITC), 298 K) came to 1.6 nM.

The values above are taken from article PMC4525181, “Structural and dynamic insights into the energetics of activation loop rearrangement in FGFR1 kinase” (Nature Communications, 2015).
